The values that follow are results of earlier work, collected in US11021501B2, “Creatine phosphate analog prodrugs, compositions and methods of use thereof” (Farmington Pharma Development, priority 2015, dated 2021).

In the series the test system is ALS. Particulars: ALS patients.

`Nc1nc2ccc(OC(F)(F)F)cc2s1` [riluzole]: the extension of survival entry is “about three”.
